Reference: patent US20070026067A1, “Liquid formulations for controlled delivery of benzisoxazole derivatives” (priority 2005, published 2007)

Assay: clinical
Details: male, human, plasma, 2 mg
[1] = other: colonic bolus into the transverse colon
[2] = other: colonic infusion into the transverse colon

Compound Cc1nc2n(c(=O)c1CCN1CCC(c3noc4cc(F)ccc34)CC1)CCCC2 [Risperidone] has an AUC(0-inf) [1] of 30.6 ng·h/mL, an AUC(0-t) [1] of 29.7 ng·h/mL and a Cmax [1] of 7.31 ng/mL. It also gave a Tmax [1] of 0.77 h, a bioavailability [1] of 63.4% and a half-life [1] of 3.32 h. It also gave a bioavailability (other: colonic bolus into the transverse colon, Risperidone Relative Bioavailability, Treatment B: colonic bolus 2 mg over 10 minutes, relative to oral dosing) of 63%, an AUC(0-inf) [2] of 56.1 ng·h/mL and an AUC(0-t) [2] of 53.1 ng·h/mL. The Cmax [2] was 4.93 ng/mL, the Tmax [2] was 6.18 h and the half-life [2] was 4.11 h. It also gave a bioavailability (other: colonic infusion into the transverse colon, Risperidone Relative Bioavailability, Treatment A: colonic infusion 2 mg over 6 hours, relative to oral dosing) of 75%, an AUC(0-inf) (po) of 59.7 ng·h/mL and an AUC(0-t) (po) of 58.7 ng·h/mL. The Cmax (po) was 16.2 ng/mL, the Tmax (po) was 0.69 h and the half-life (po) was 3.31 h.
